DT40 TDP1 CPT = DT40-hTDP1 cell growth loss with CPT | 12% of 420,000 active | Potency, µM (highest dose often 46.2 µM), for inactives: top-dose activity change, negative = growth inhibition, actives largely listed as inhibitors | chicken DT40 Tdp1-/-;hTDP1 cells + 20 nM CPT, ATP luminescence, 48 h; further: potency means the concentration at half of the fitted maximal effect; on the % scale 0 is the no-effect control and ±100 the full control effect; nearly all actives have a fitted effect of over 55% in size
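Chicken DT40 Tdp1-/- cells stably complemented with human TDP1 were seeded at 400 cells/well in medium containing 20 nM camptothecin, exposed to pin-transferred compounds, and grown at 37 °C for at least 48 hr. Viability was read as ATP luminescence.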
TDP1 block = blocks human tyrosyl-DNA phosphodiesterase 1 | recombinant TDP1, AlphaScreen DNA substrate cleavage | Potency, µM (titrated, usually from 130 µM), for inactives: at the top dose activity change, negative = inhibition, most hits filed as inhibitors | 0.28% of 350,000 active | AID 485290; further: potency means the concentration at half of the fitted maximal effect; on the % scale 0 is the no-effect control and ±100 the full control effect; nearly all actives have a fitted effect of over 40% in size
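Compounds were preincubated with Tdp1 (1 nM final) for 15 min at room temperature before substrate (15 nM final) started a 5 min reaction; beads (10 ug/ml final) were then added for 10 min before AlphaScreen detection.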
miR-21 reporter = miR-21 reporter, rising signal | HeLa miR-21 FLuc reporter, luciferase, 48 h | Potency, µM (highest dose often 38.3 µM), for inactives: at the top dose reporter change, positive = more light | 340,000 tested, under 10 active | AID 2288; active = well fitted rising curve with a large enough effect; inconclusive = small, poorly fitted or top-dose-only effect; inactive = no such curve, though single readings can be large or run the other way;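 further: % of control where 0% means no effect; miR-21 action dims this reporter so a rising signal means less miR-21 action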
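HeLa miR-21-FLuc reporter line, endogenous miR-21; 2000 cells/well in DMEM/10% FBS; compound titration up to ~40uM final, 48 h, 37 degree Celsius; luciferase detection reagent, 15 min lysis, CCD luminescence.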
uPA surface inh = cell surface uPA generation inhibition; cell surface uPA generation assay, qHTS; 0.31% of 330,000 active; Potency, µM (highest dose often 38.3 µM), for inactives: at the highest dose activity change, negative = inhibition, actives largely listed as inhibitors; active means well fitted inhibition curve with a large enough effect; inconclusive means small, poorly fitted or top-dose-only effect; inactive means no such curve, though single readings can be large or run the other way; tested in mouse RAW 264.7 cells; further: potency means the concentration at half of the fitted maximal effect; on the % scale 0 is the no-effect control and ±100 the full control effect; nearly all actives have a fitted effect of over 55% in size
DT40 TDP1 no CPT = qHTS for Inhibitors of human tyrosyl-DNA phosphodiesterase 1 (TDP1): qHTS in cells in absence of CPT | DT40 Tdp1-/- hTDP1 cells, no CPT, ATP luminescence, 48 h | Potency, µM (highest dose often 46.2 µM), without a hit: at the highest dose activity change, negative = growth inhibition, usual class: inhibitors | 15% of 420,000 active | AID 686978, 2013; further: potency means the concentration at half of the fitted maximal effect; on the % scale 0 is the no-effect control and ±100 the full control effect; nearly all actives have a fitted effect of over 55% in size
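Camptothecin absent (DMSO only). Human TDP1-complemented DT40 knockout cells, 400 cells/well, 37 °C for minimum 48 hr; ATP measured via CellTiter-Glo, 30 min dark incubation, luminescence.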
An asterisk follows results filed as active; u = inconclusive; x = no result; [ ] = dose if it differs, or a comment. Only some compounds are listed: those with a hit (about 16% of all), similar ones and a draw of the others. Unless noted, the call rests on the fitted dose curve; in most records, active means well fitted curve in the direction sought with a large enough effect; inconclusive means small, poorly fitted or top-dose-only effect, or another doubt; inactive means no such curve, though single readings can be large; an effect the other way counts as inactive or inconclusive.

1	O=C(Cc1ccc(Br)cc1)N/N=C/c1ccc(-c2cccc(C(=O)O)c2)o1
2	Cc1ccc(CNC(=O)c2ccccc2N)cc1
3	Cn1nnnc1Sc1ncnc2scc(-c3cccc4c3sc3ccccc34)c12
4	O=C(NCC1OCCc2ccccc21)c1ccc(NC(=O)c2ccc(Cl)cc2)cc1 (centres undefined)
5	NC(N)=Nc1nc2ccc(Cl)cc2c(=O)[nH]1

screen / no.	1	2	3	4	5
DT40 TDP1 CPT	-4%	-3%	x	23µM*	u
DT40 TDP1 no CPT	-11%	6%	x	16µM*	13µM*
miR-21 reporter	-27%	-20%	x	-1%	-1%
TDP1 block	-8%	3%	0%	1%	-3%
uPA surface inh	4%	9%	u	-2%	0%

6	O=c1[nH]nnc2cc(Cl)ccc12
7	Cn1c(C(=O)N2CCCC(C(=O)O)C2)cc2sccc21 (centres undefined)
8	CCn1c(C(=O)N2CCCC(C(=O)N3CCN(c4ccccc4)CC3)C2)cc2sccc21 (centres undefined)
9	CCn1c(C(=O)N2CCC(C(=O)N3CCN(c4ccc(OC)cc4)CC3)CC2)cc2sccc21
10	Cn1c(C(=O)N2CCCC(C(=O)N3CCN(C(=O)c4ccco4)CC3)C2)cc2sccc21 (centres undefined)

screen / no.	6	7	8	9	10
DT40 TDP1 CPT	15%	0%	u	9.2µM*	15µM*
DT40 TDP1 no CPT	-7%	1%	23µM*	13µM*	u
miR-21 reporter	x	-1%	19%	28%	11%
TDP1 block	x	-1%	x	6%	3%
uPA surface inh	1%	-1%	x	x	10%

11	CCn1c(C(=O)N2CCC(C(=O)N3CCN(c4cc(C)ccc4C)CC3)CC2)cc2sccc21
12	CC(=O)Nc1cccc(OCc2ccc([N+](=O)[O-])cc2)c1
13	CON(C)C(=O)CCC1CCCN1C(=O)OC(C)(C)C (centres undefined)
14	CCn1c(C(=O)N2CCC(C(=O)N3CCN(c4ccccn4)CC3)CC2)cc2sccc21
15	COCCOC(=O)c1c(C)oc2ccc(NS(=O)(=O)c3ccc(F)cc3)cc12

screen / no.	11	12	13	14	15
DT40 TDP1 CPT	23µM*	u	-7%	u	u
DT40 TDP1 no CPT	16µM*	-23%	-5%	26µM*	-23%
miR-21 reporter	20%	x	x	20%	-6%
TDP1 block	5%	x	2%	4%	0%
uPA surface inh	x	x	-4%	-29%	7%

16	N#CC(c1ccc(O)cc1)N1CCN(C(C#N)c2ccc(O)cc2)CC1 (centres undefined)
17	Cc1ccc2nc(-c3ccccc3N)[nH]c2c1
18	Cc1nc2ccc(Cc3ccc4nc(C)[nH]c4c3)cc2[nH]1
19	Cc1ccc(C)c(-c2nc3ccc(N)cc3[nH]2)c1
20	Nc1ccc2nc(-c3ccc(Cl)cc3)[nH]c2c1

screen / no.	16	17	18	19	20
DT40 TDP1 CPT	-15%	-25%	26µM*	23µM*	2.9µM*
DT40 TDP1 no CPT	-18%	u	u	15µM*	4.6µM*
miR-21 reporter	x	3%	-7%	-2%	-67%
TDP1 block	x	0%	-1%	7%	6%
uPA surface inh	-2%	-18%	-6%	-3%	4.5µM*

21	Cc1nc2ccc(-c3nc4ccc(N)cc4[nH]3)cc2[nH]1
22	O=C(COC(=O)c1ccc2c(c1)OCO2)Nc1ccccc1
23	Clc1ccc2nc(-c3ccccc3)[nH]c2c1
24	O=C(c1ccccc1)n1ccc2ccccc21
25	CCOC(=O)c1c(C)c(C(=O)NCCOC)c(C)n1CC

screen / no.	21	22	23	24	25
DT40 TDP1 CPT	2.9µM*	-3%	30µM*	-19%	-1%
DT40 TDP1 no CPT	4.1µM*	-27%	27µM*	-2%	0%
miR-21 reporter	27%	-6%	x	-21%	-6%
TDP1 block	-1%	3%	5%	-6%	-3%
uPA surface inh	-6%	4%	x	-4%	x

Nos. 19 through 22, quoted:
19	Cc1ccc(C)c(-c2nc3ccc(N)cc3[nH]2)c1
20	Nc1ccc2nc(-c3ccc(Cl)cc3)[nH]c2c1
21	Cc1nc2ccc(-c3nc4ccc(N)cc4[nH]3)cc2[nH]1
22	O=C(COC(=O)c1ccc2c(c1)OCO2)Nc1ccccc1

screen / no.	19	20	21	22
DT40 TDP1 CPT	23µM*	2.9µM*	2.9µM*	-3%
DT40 TDP1 no CPT	15µM*	4.6µM*	4.1µM*	-27%
miR-21 reporter	-2%	-67%	27%	-6%
TDP1 block	7%	6%	-1%	3%
uPA surface inh	-3%	4.5µM*	-6%	4%

Continuation:
26	CCOC(=O)c1c(C)c(C(=O)Nc2ccc(N(C)C)cc2)c(C)n1CC
27	CCOC(=O)c1c(C)c(C(=O)NCc2ccc(Cl)cc2)c(C)n1CC
28	COc1ccc(Cn2c(SCc3ccc(C(=O)NCCc4ccccc4)cc3)nc3cccnc32)cc1
29	O=C(NCCc1ccccc1)c1ccc(Cn2c(SCc3ccccc3F)nc3cccnc32)cc1
30	O=C(NCCc1ccccc1)c1ccc(CSc2nc3cccnc3n2Cc2ccccc2F)cc1

screen / no.	26	27	28	29	30
DT40 TDP1 CPT	7.3µM*	u	u	16µM*	u
DT40 TDP1 no CPT	4.6µM*	26µM*	u	18µM*	9.2µM*
miR-21 reporter	-1%	-3%	-8%	0%	-17%
TDP1 block	2%	1%	4%	9%	7%
uPA surface inh	x	x	x	x	x

31	Cc1cccc2[nH]cc(/C=C3/C=Nc4ccccc43)c12
32	CCOc1ccccc1NC(=O)NC1CCCc2ccccc21 (centres undefined)
33	Cc1ccc(S(=O)(=O)Nc2c(C)n(C)n(-c3ccccc3)c2=O)cc1C(=O)OC(C)C(=O)c1ccccc1 (centres undefined)
34	Cc1ccc(S(=O)(=O)Nc2c(C)n(C)n(-c3ccccc3)c2=O)cc1C(=O)OC(C)C(=O)N(C)c1ccccc1 (centres undefined)
35	CC1CCc2cc(F)ccc2N1C(=O)CCl (centres undefined)

screen / no.	31	32	33	34	35
DT40 TDP1 CPT	7.9µM*	-19%	-34%	-15%	5.8µM*
DT40 TDP1 no CPT	4µM*	-5%	-22%	-21%	6.5µM*
miR-21 reporter	x	12%	x	-1%	u
TDP1 block	x	2%	x	5%	-1%
uPA surface inh	x	-16%	5µM*	-6%	-12%

36	COc1cc(OC)cc(C(=O)N2c3ccc(F)cc3CCC2C)c1 (centres undefined)
37	CCC(CC)C(=O)N1c2ccc(F)cc2CCC1C (centres undefined)
38	COc1cc(C(=O)N2c3ccccc3CCC2C)cc(OC)c1OC (centres undefined)
39	CC1CCc2cc(F)ccc2N1C(=O)c1ccc2c(c1)OCO2 (centres undefined)
40	CCOC(=O)C(CC)Sc1nc(N)c(NC(=O)c2ccc(OC)c(OC)c2)c(=O)[nH]1 (centres undefined)

screen / no.	36	37	38	39	40
DT40 TDP1 CPT	10µM*	-28%	18µM*	u	11%
DT40 TDP1 no CPT	12µM*	u	9.2µM*	15µM*	-1%
miR-21 reporter	1%	-4%	15%	-1%	-4%
TDP1 block	3%	2%	x	-1%	-1%
uPA surface inh	3%	1%	6%	4%	-4%

41	COc1cccc(NC(=O)c2ccc3c(c2)N(CC(=O)N2CCOCC2)C(=O)C(C)(C)O3)c1
42	COc1ccc(S(=O)(=O)NC(CC(=O)NCc2ccc3c(c2)OCO3)c2ccco2)cc1 (centres undefined)
43	CC(C)NC(=O)c1cn(C2CCCN(C(=O)c3cc4ccccc4oc3=O)C2)nn1 (centres undefined)
44	Clc1ccc(OCc2nc3ccccc3n2Cc2ccccc2)c(Cl)c1
45	COc1ccc2nc3ccccc3nc2c1NC(=O)c1ccc(Cl)cc1Cl
46	Cc1nn(Cc2ccc(C(=O)N3c4ccc(F)cc4CCC3C)o2)c(C)c1Br (centres undefined)

screen / no.	41	42	43	44	45	46
DT40 TDP1 CPT	5%	-21%	23%[9.04 µM]	u	-16%	21µM*
DT40 TDP1 no CPT	-17%	u	-14%	u	u	16µM*
miR-21 reporter	1%	-6%	x	-44%	-4%	17%
TDP1 block	x	3%	x	5%[12.3 µM]	0%	2%
uPA surface inh	-1%	3%	x	x	-2%	10%
